Experimental data as given in PMC11862990, “Utility of 6-aza-2-thiothymine in the synthesis of novel [1,2,4]triazolo[4,3-b][1,2,4]triazin-7-one derivatives: synthesis, structure elucidation, molecular docking and in vitro anti-lung cancer activity” (RSC Advances, 2025).

Test system: lung cancer cell lines (A549)
Assay: DNA fragmentation assay (diphenylamine reaction)
Format: cell-based, human
Procedure: The DNA fragmentation assay in lung cancer cell lines was performed in accordance with the protocol established by Yawata (1998)[34] with some modifications. Briefly, the lung cancer cell lines (A549) exposed to different compounds such as PT1, PT7 and Doxorubicin were homogenized in 1 ml of the medium and centrifuged (10 min at 800 rpm). The low-molecular-weight genomic DNA was extracted as described in Yawata (1998).[34] Approximately 1 × 10^6 cells of each treatment were plated. All the cells (including floating cells) were harvested and washed with Dulbecco's phosphate buffered saline. The cancer cells were lysed with the lysis buffer containing 10 mM Tris (pH 7.4), 150 mM NaCl, 5 mM ethylenediaminetetraacetic acid (EDTA), and 0.5% Triton X-100 for 30 min on ice. […] Fragmented DNA in the supernatant was extracted with an equal volume of a neutral phenol : chloroform : isoamyl alcohol mixture (25 : 24 : 1) and analyzed electrophoretically on 2% agarose gels containing 0.1 μg ml^−1 ethidium bromide.
The lung cancer cell lines (A549) were used to determine the quantitative profile of the DNA fragmentation. […] The proportion of the fragmented DNA was calculated from the absorbance values at 600 nm wavelength using the formula:% fragmented DNA = [OD(S)/[OD(S) + OD(P)]] × 100(OD: optical density, S: supernatants, P: pellets).

COc1cccc2c1C(=O)c1c(O)c3c(c(O)c1C2=O)C[C@@](O)(C(=O)CO)C[C@@H]3O[C@H]1C[C@H](N)[C@H](O)[C@H](C)O1 [Dox, Doxorubicin, reference compound]
DNA fragmentation% (M ± SEM) (negative control 12.54 ± 0.45): 28.38 ± 1.06^b %
DNA fragmentation% (M ± SEM) (negative control 12.54 ± 0.45, listed as doxorubicin): 28.38 ± 1.06%

Marks after values point to notes of the source that are not given here.
